# Assays:
# [1] = Biodistribution and plasma levels in tumor-bearing mice; conditions: 10 mg/kg (DOX equivalent), CDF1 mice
# tumor = test: Cancer treatment efficacy and toxicity in tumor-bearing mice (Table 2, therapeutic window); conditions: for Toxic Death: deaths/animals
substance,measurement,setting,value
poly(ethylene glycol)poly(aspartate-hydrazone-adriamycin) [DOX-Micelle],dose remained in the blood,[1]; after 24 hours,17%
same,"accumulation in tumors, higher than doxorubicin",[1]; after 48 hours,11 fold
same,Weight change on day 30 (%),tumor; dose 5 mg/kg,−0.89 ± 1.68%
same,Toxic Death,tumor; dose 5 mg/kg,0/6
same,Weight change on day 30 (%),tumor; dose 10 mg/kg,−4.51 ± 1.44%
same,Toxic Death,tumor; dose 10 mg/kg,0/6
same,Weight change on day 30 (%),tumor; dose 20 mg/kg,3.13 ± 1.60%
same,Toxic Death,tumor; dose 20 mg/kg,0/6
same,Weight change on day 30 (%),tumor; dose 40 mg/kg,−4.07 ± 0.92%
same,Toxic Death,tumor; dose 40 mg/kg,0/6
same,stability of micelles (ADR release),"over 72 hours, region A: physiological and early endosomal pH conditions",stable
same,ADR release from micelles,pH decreasing from 7.4 to 3.0,time- and pH-dependently

# — patent US20080248097A1, “POLYMERIC MICELLES FOR COMBINATION DRUG DELIVERY” (priority 2007, published 2008)
